Measurements published in ChEMBL document CHEMBL5143749, “Discovery of Insulin/GLP-1/Glucagon Triagonists for the Treatment of Diabetes and Obesity” (ACS Med Chem Lett, 2022).

Protein sequences, listed by entry. Tags and fused reporters are not part of them.
UniProt P43220, whole entry: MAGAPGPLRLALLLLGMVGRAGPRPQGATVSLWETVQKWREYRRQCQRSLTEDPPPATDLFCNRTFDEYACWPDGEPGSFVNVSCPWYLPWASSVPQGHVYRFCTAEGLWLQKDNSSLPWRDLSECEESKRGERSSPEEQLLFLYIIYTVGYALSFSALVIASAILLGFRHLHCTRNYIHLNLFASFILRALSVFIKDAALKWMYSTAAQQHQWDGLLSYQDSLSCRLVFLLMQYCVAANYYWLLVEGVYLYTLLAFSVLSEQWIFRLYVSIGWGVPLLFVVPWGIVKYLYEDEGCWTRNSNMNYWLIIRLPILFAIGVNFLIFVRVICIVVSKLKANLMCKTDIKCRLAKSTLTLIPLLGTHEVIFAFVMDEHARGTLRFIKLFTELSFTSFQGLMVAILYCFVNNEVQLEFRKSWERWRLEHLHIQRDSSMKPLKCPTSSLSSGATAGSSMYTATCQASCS

Target: Glucagon-like peptide 1 receptor (Homo sapiens, UniProt P43220)
Test: Agonist activity at human GLP1R expressed in frozen cells assessed as measuring the cAMP level incubated for 1 hr by HitHunter chemiluminescence based assay
Type: functional, cell-based

CCCCCCCCCCCCCCCC(=O)N[C@@H](CCC(=O)N[C@@H](CCC(=O)NCCCC[C@H](NC(=O)[C@H](CC(=O)O)NC(=O)[C@H](CO)NC(=O)[C@@H](NC(=O)[C@H](Cc1ccccc1)NC(=O)[C@@H](NC(=O)CNC(=O)[C@H](CCC(N)=O)NC(=O)[C@@H](CO)NC(=O)[C@@H](N)Cc1c[nH]cn1)[C@@H](C)O)[C@@H](C)O)C(=O)N[C@@H](CO)C(=O)N[C@@H](CCCCN)C(=O)N[C@@H](Cc1ccc(O)cc1)C(=O)N[C@@H](CC(C)C)C(=O)N[C@@H](CC(=O)O)C(=O)N[C@@H](CCC(=O)O)C(=O)N[C@@H](CCCNC(=N)N)C(=O)N[C@@H](C)C(=O)N[C@@H](C)C(=O)N[C@@H](CCC(N)=O)C(=O)N[C@@H](CC(=O)O)C(=O)N[C@@H](Cc1ccccc1)C(=O)N[C@H](C(=O)N[C@@H](CCCCN=[N+]=[N-])C(=O)N[C@@H](Cc1c[nH]c2ccccc12)C(=O)N[C@@H](CC(C)C)C(=O)N[C@@H](CC(C)C)C(=O)N[C@@H](CC(=O)O)C(=O)N[C@H](C(N)=O)[C@@H](C)O)C(C)C)C(=O)O)C(=O)O
EC50: 48 pM
